Test system: in vitro glomerular capillary wall (hiPS-derived podocytes / human glomerular endothelial cells)
Experiment: Glomerular filtration of albumin and inulin in organ-on-a-chip lined by hiPS-derived podocytes and glomerular endothelial cells
Format: in vitro ADME
From the text: FIGS. 10A-10G show use of an organ-on-chip microphysiological device to perform the differentiation of human iPS-derived podocytes and to model the structure and function of human glomerular capillary wall. (FIG. 10A) Schematic representation of glomerular capillary wall showing podocytes and endothelial cells separated by glomerular basement membrane (GBM). Exemplary directional flow of molecules from capillary lumen to urinary space is shown by arrowed line. (FIG. 10B) Photograph (left) and schematic (right) of an exemplary microfluidic organ-on-chip device with compartments simulating the function of the urinary and capillary components of the glomerulus. The glomerular basement membrane is modeled by a porous PDMS membrane that is amenable to functionalization with ECM protein(s). (FIG. 10C) Fluorescent images of human iPS-derived podocytes differentiated in organs-on-chips microfluidic devices. Cells were differentiated in static (left), fluid flow (middle), or fluid flow and mechanical strain (right) conditions. Fluid was flowed at a rate of about 60 μL/hr in both the urinary and capillary compartments of the device. […] (FIG. 10G) Quantification of glomerular filtration of albumin and inulin continuously infused into the capillary channel of organs-on-chips lined by human iPS-derived podocytes and glomerular endothelial cells. […]

albumin
glomerular filtration on chip (capillary to urinary channel): selective retention

Reference: patent US11083754B2, “Methods for generation of podocytes from pluripotent stem cells and cells produced by the same” (PRESIDENT AND FELLOWS OF HARVARD COLLEGE, priority 2014, dated 2021)
